Yeast mating assay B: variants of the scFv Ab-14

Target: peptide PDVDLGDISGINAS, taken from heptad repeat 2 (HR2) of SARS-CoV-2 spike.

The variants keep the heavy chain, the linker and the frameworks of Ab-14 (scFv order VH, a (GGGGS)3 linker, VL).
VH: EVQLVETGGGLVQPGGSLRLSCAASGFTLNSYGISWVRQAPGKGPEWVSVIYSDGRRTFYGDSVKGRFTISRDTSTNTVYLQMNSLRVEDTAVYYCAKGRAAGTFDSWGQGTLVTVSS
VL: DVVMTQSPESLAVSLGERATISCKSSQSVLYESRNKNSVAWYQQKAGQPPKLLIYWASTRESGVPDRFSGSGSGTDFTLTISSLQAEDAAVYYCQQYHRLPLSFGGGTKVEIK

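The parent was found by panning a naive human phage display library on the peptide. Designed CDR sequences, proposed from the first random library and measured here. Several design methods are mixed in this list. AlphaSeq pools MATa yeast showing the antibodies with MATalpha yeast showing the peptide. Mating (16 h, 30 °C) was followed by selection of diploids and sequencing of their barcodes. Read counts were normalised to the haploid input and turned into Kd by a linear fit to BCL2-family pairs of known affinity, for each replicate. The assay was run in six technical replicates.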

Each variant is given by its three light chain CDRs, as the data file delimits them; those of the parent are KSSQSVLYESRNKNSVA, WASTRES, QQYHRLPLS.
Numbers give log10(Kd / nM), so 0 is 1 nM and 3 is 1 µM. Smaller is tighter.
The mean shown is taken over the replicates in which the pair was detected.
An entry "nd" has no value in the source: the pair was not observed among the diploids in any replicate. This suggests poor binding but is not conclusive.
Entries are sorted by rising average, undetected variants last.
The authors averaged sequences with at least three values out of six and counted those with two or fewer as poor binders.
Empty control strains, which show no peptide, gave a signal in 4% of pairings with all light chain designs; the median was 2.64 and 95% of these signals were weaker than 1.59. No background was subtracted.
A sequence measured in both rounds can read differently, since the two assays cover different ranges.

CDR-L1,CDR-L2,CDR-L3,"mean, log10 nM",replicates with signal
KLSQSVLYESRVKNSVA,NASTRLS,QQYHRLPLS,-0.52,6 of 6
KLSSVTGTEKVHGNNVA,EMETRER,QQYNRLPLS,-0.41,6 of 6
KLSQSWLYESRNKNSVA,GASTRED,QQYHRLPLS,-0.31,6 of 6
KLSQSVDYESRQKNSVA,NAQTRMS,QQYHRLPLS,-0.27,6 of 6
KLQQSVLYESRNKNSVA,NASTRSS,QQYHRLPLS,-0.23,6 of 6
KVSPSFLYESRNKNSVA,DASTRES,QQYHRLPLS,-0.18,6 of 6
HISQSVEGESSNKNSVA,SASTREQ,QQYHRLPLS,-0.14,6 of 6
KFSQMSNQFSVSMNAVA,EMSTRPE,QQYNRLPLS,0.07,6 of 6
KLSQSVLYQMQLKNSVA,NAQTRMS,QQYHRLPLS,0.08,6 of 6
KVDISQLYESRNKNSVA,NASLRCS,QQYHRLPLS,0.10,6 of 6
KISQSINVGSKNKNSLA,EMSTREF,QDYHRLPLS,0.10,6 of 6
KLAGSQLYESRNKNSVA,NASTRES,QQYRRLPLS,0.11,6 of 6
KLLQSVLYESRNKNSVA,HASTRES,QQYHQLPLS,0.12,6 of 6
KLSQSDLYESRNFNSVA,NASTRES,QQYHRLPLS,0.12,6 of 6
KMSQSVLMESRNKNSVA,WASTRES,QQYHRLPLS,0.13,6 of 6
KSSESDLYESRNKNSVA,EASTREQ,QQYHRLPLS,0.14,6 of 6
KMSQSVLYESRNKNDVA,AASTRES,QQYHRLPLS,0.19,6 of 6
KVSQSVLYESGTKNSVA,NASSRES,QQYHRLPLS,0.20,6 of 6
KSSQSELYESRNKNSVA,EASTREE,QQYHRLPLS,0.21,6 of 6
KVSQSDLYESRNKNSVA,DASQRES,QQYHRLPLS,0.22,6 of 6
KVSPSELYESRNKNSVA,EASQRES,QQYHRLPLS,0.22,6 of 6
KLSQSVLYESRQKNSVA,NASTRLS,QQYHRLPLS,0.24,6 of 6
KMQASNGYESRNKNAVA,QASTRES,QQYHRLPLS,0.26,6 of 6
KSSQSGLYESRNVNSVA,GASTRDS,QQYHRLPLS,0.28,6 of 6
SISQLVNFEGKNKNSVA,QMSTRES,QQYDRLPLS,0.30,6 of 6
KMSQSWLYESRNSNSVA,NASQRES,QQYHRLPLS,0.30,6 of 6
KSSQSVHYESRNKNSVA,GASTRES,QQYHRLPLS,0.35,6 of 6
NIYQAMHTLSQMKDNVA,DVNERGQ,QQYFRLPLS,0.39,6 of 6
KQSQSVLYESRNMNSVA,MGSTRES,QQYHRLPLS,0.46,6 of 6
SLRLKELGMSYNANNVA,DSENRIK,QQYYRLPLM,0.48,6 of 6
KWSQSWLMESMNSASVA,HASQRES,QQYHRLPLS,0.57,6 of 6
KSSISYSAESRNKNSVA,EASTRES,QQYHRLPLS,0.58,6 of 6
KSSKSVLYESRNKNSVA,MASTREV,QQYHRLPLS,0.62,6 of 6
KVSQSEWYESRWKNSVA,NASQRES,QQYHRLPLS,0.70,6 of 6
HASQSGLYEQRVKNSVA,SASMRES,QQYHRLPLS,0.70,6 of 6
LSSGSYLYESPNKNSVA,EASTRES,QQYHRLPLS,0.72,6 of 6
KLSQSEPYESRNKNSVA,NASYRMS,QQYHRLPLH,0.76,6 of 6
TISGVMQQMSHSKSNVA,EVSMRLE,QQYVRLPLA,0.76,6 of 6
KSPQSVLYESRNKNSVA,HASTRED,QLYHRLPLS,0.83,6 of 6
KIGGVTNGVSFSKNSVA,EQSTRED,QQYDRLPLS,0.85,6 of 6
QIFFDLFEQGKRSQPIA,GGSMREV,QQYARLPLV,0.85,6 of 6
HFAHPWQSGYESKQNVA,NGSTVMT,QHYNRLPLS,0.85,6 of 6
HVSSMDMHDGGIMHSVA,DMKITER,QQYMRLPLS,0.89,6 of 6
FLMQSVLYESRNKNSVA,HASLRED,QQYHRLPLS,0.91,6 of 6
KSSQSVLEESRNKNSVA,EASTRES,QQYHRLPLS,0.97,6 of 6
MVNGIMDHLSKQTNNVA,ETTTREE,QQYERLPLS,0.99,6 of 6
KLTEMFQHTSKNKSNIA,ERSTREE,QQYHHLPLS,1.04,6 of 6
KLSMSGLYESRNWNSVA,EASTRES,QDYHRLPLS,1.18,6 of 6
SLNKEAWDFNQTWNAVA,DHSMRVT,QQYIRLPLT,1.26,6 of 6
KFSQKVNYETRTKNSVA,NASTRES,QQYHRLPLS,1.37,6 of 6
KSSQSVLRESSNKNSVA,YASTRES,QQYHRLPLS,1.38,6 of 6
MMHNCQEGYYQQNNNVA,EMNARMM,QQYGRLPLM,1.46,6 of 6
KLSESVRMESFNKDSVA,ENSTREA,QDYHRLPLS,1.48,5 of 6
KISQTVLYQGRTWNAVA,QMSTREN,QQYDRLPLS,1.52,6 of 6
QLPFERGDGYLQKNNVA,EGTESSH,QQYMRLPLT,1.59,6 of 6
KISMLYNFATTNKNSIA,EMTTRES,QHYHRLPLS,1.61,4 of 6
KVSQSVLMMTRNKNSVA,DNSTSGS,QQYHRLPLS,1.68,6 of 6
KSSQSVLYESVNHNSVA,QASTRES,QQYHRLPVS,1.92,6 of 6
KLYMSTGYEMRNADSIA,DNSTRGR,QQYHRLPLS,2.79,2 of 6
KSLQSVLYESRNKNSVA,HASTRED,PQYHRLPLS,nd,0 of 6
MISQVLNTLTRTGNNVA,DLTEREV,QQYFRLPLS,nd,0 of 6
KSSQQVLYESRNKNSVA,RASTRES,QQYHRLPLS,nd,0 of 6
RLQQEHVGYNKKMNAIA,QGSQRCH,QSYDRLPLS,nd,0 of 6
KLSMEPLVEWNRAQAIA,DAHMSYI,QQYFTLPLY,nd,0 of 6

A selection of 3 entries from above:

| CDR-L1 | CDR-L2 | CDR-L3 | mean, log10 nM | replicates with signal |
|---|---|---|---|---|
| KSSQSVHYESRNKNSVA | GASTRES | QQYHRLPLS | 0.35 | 6 of 6 |
| KLSMEPLVEWNRAQAIA | DAHMSYI | QQYFTLPLY | nd | 0 of 6 |
| KSSQSGLYESRNVNSVA | GASTRDS | QQYHRLPLS | 0.28 | 6 of 6 |

The measurements come from Li et al. 2023 (doi:10.1038/s41467-023-39022-2) through the FLAb antibody collection.